The numbers were not newly measured in US20190021608A1, “CD206+ Macrophage-Specific Molecular Imaging Probe Compositions and Methods and the Noninvasive Quantification of Arterial Wall Macrophage Infiltration in Humans” (Navidea Biopharmaceuticals, Inc., priority 2017, published 2019), which cites them from elsewhere.

Sequences of proteins named here, by UniProt entry; tags and fusion partners are left off. Residues count along the entry.
UniProt P22897, 19-1456, species assumed: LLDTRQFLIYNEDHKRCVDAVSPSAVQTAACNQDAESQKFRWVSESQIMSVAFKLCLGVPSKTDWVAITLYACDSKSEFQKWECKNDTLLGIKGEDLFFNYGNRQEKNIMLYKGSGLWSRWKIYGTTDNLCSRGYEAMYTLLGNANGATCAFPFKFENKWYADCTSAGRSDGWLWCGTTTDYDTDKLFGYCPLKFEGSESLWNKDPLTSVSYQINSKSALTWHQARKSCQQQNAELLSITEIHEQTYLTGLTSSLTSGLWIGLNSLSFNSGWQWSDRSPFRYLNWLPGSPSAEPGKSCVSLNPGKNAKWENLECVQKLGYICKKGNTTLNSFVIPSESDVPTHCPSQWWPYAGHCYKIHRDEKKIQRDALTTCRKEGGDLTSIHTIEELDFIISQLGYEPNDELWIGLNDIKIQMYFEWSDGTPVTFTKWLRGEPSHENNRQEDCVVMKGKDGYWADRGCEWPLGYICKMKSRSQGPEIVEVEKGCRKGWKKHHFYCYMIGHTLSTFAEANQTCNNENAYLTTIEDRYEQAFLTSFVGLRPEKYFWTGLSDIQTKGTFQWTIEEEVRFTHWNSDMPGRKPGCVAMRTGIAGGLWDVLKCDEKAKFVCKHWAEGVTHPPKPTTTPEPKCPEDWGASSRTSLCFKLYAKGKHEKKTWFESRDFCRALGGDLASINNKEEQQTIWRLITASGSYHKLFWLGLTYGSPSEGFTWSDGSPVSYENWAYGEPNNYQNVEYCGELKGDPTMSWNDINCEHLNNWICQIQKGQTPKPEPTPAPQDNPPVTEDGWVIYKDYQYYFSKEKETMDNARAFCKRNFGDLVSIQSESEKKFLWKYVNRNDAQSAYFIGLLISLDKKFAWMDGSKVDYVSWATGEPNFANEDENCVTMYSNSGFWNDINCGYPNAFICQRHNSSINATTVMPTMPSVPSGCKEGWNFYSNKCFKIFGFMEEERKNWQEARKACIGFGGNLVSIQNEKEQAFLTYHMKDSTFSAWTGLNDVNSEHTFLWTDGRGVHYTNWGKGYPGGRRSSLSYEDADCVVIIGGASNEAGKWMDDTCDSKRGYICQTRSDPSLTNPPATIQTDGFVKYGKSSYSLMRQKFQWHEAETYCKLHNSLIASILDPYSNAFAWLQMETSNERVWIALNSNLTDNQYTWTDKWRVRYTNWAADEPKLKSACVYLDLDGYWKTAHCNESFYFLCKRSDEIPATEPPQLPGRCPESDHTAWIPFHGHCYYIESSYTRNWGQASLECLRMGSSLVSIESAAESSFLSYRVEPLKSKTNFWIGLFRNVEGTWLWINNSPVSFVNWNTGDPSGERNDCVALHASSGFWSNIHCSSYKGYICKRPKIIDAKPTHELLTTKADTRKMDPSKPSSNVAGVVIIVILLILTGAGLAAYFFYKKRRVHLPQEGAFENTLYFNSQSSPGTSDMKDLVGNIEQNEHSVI

The data set has as its target CD206 (Homo sapiens, UniProt P22897). As to conditions: read-out: dissociation constant for CD206.

For “dextran 3-[(2-aminoethyl)thio]propyl 17-carboxy-10,13,16-tris(carboxymethyl)-8-oxo-4-thia-7,10,13,16-tetraazaheptadec-1-yl 3-[[2-[[1-imino-2-(D-mannopyranosylthio)ethyl]amino]ethyl]thio]propyl ether complexes [Tilmanocept]”, the Kd is 0.03 nM.
